Biological target: T1, VMAT2 (Homo sapiens, UniProt Q05940)
T1 construct: Eurofins Panlabs, Inc. (named only as the place where the ligand's KD was obtained)
Assay: VMAT2 competitive radioligand binding assay
Experimental: Assays were performed under conditions described in the accompanying “Methods” section of this report. Where presented, IC50 values were determined by a non-linear, least squares regression analysis using MathIQ™ (ID Business Solutions Ltd., UK). […] Where presented, the Hill coefficient (nH), defining the slope of the competitive binding curve, was calculated using MathIQ™.

Chains of the proteins cited; added tags and fusions are not shown.
UniProt Q05940, whole entry: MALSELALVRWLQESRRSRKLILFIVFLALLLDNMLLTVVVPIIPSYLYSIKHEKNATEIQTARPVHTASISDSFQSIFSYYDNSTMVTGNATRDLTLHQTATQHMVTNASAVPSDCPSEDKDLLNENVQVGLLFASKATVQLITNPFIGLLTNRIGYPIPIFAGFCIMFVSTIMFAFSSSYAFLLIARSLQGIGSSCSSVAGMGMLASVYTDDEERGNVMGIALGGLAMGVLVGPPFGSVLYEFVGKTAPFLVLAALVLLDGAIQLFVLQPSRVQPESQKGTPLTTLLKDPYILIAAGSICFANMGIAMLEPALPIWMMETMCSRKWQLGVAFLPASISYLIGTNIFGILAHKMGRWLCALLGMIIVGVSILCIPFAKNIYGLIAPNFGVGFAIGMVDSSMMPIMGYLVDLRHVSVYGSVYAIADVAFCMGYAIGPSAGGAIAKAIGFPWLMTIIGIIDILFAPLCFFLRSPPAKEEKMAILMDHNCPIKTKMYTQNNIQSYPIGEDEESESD

Row | Compound | VMAT2 inhibition in vitro (in words)
1 | [2H]C([2H])([2H])Oc1cc2c(cc1OC([2H])([2H])[2H])[C@@H]1C[C@H](O)[C@@H](CC(C)C)CN1CC2 [[−]-α-DHTBZ, (−)-α-3-isobutyl-9,10-di(methoxy-d3)-1,3,4,6,7, 11b-hexahydro-2H-pyrido[2,1-a]isoquinolin-2-ol] | inactive
2 | [2H]C([2H])([2H])Oc1cc2c(cc1OC([2H])([2H])[2H])[C@@H]1C[C@@H](O)[C@@H](CC(C)C)CN1CC2 [[−]-β-DHTBZ, (−)-β-3-isobutyl-9,10-di(methoxy-d3)-1,3,4,6,7,11b-hexahydro-2H-pyrido[2,1-a]isoquinolin-2-ol] | inactive

— patent publication US20240197714A1, “METHODS FOR THE ADMINISTRATION OF CERTAIN VMAT2 INHIBITORS” (Neurocrine Biosciences, Inc., priority 2021, published 2024)
